Tested on: mismatch repair (MMR) in H36 pCAR-OF cells
Assay: H36 pCAR-OF β-galactosidase MMR-sensitive reporter screening assay
Format: cell-based, murine

Compound: CN(N=O)C(=N)N[N+](=O)[O-]
- generation of β-galactosidase positive cells / MI and shifting of the polynucleotide tract in the pCAR-OF reporter: did not result in MI and/or the shifting of the polynulceotide tract in the pCAR-OF reporter
